Measurements taken from patent US20110033906A1 (priority 2009, published 2011).

Tested on: yeast (MT 8-1)
Conditions: ionic liquid concentration up to 200 mM

Substance: 1-ethyl-3-methylimidazolium diethylphosphate [[Emim][DEP]]
- yeast survivability (live cell counts): not greatly affected
